Experiments:
in vitro = conditions: human, Calu-3 uninfected cytotoxicity CC50 GeoMean
[1] = Uninfected HeLa-ACE2 24 h live/dead cytotoxicity counter screen; conditions: human, uninfected HeLa-ACE2 cells

Work on `COc1ccc(C[C@H]2NC[C@H](O)[C@H]2OC(C)=O)cc1` [Anisomycin] yielded a CC50 (in vitro) of over 5.98 µM, a CC50 at 24 h ([1]; HeLa-ACE2 CC50, uninfected cells, Fig. 2b group) of at most 3 µM and a CC50 at 24 h ([1]; HeLa-ACE2 uninfected cytotoxicity CC50 GeoMean, unrounded geometric mean) of 0.189 µM.

Source: paper PMC8175350, “Drug repurposing screens identify chemical entities for the development of COVID-19 interventions” (Nature Communications, 2021)
